Assay results published in paper PMC7580997 (Journal of medicinal chemistry, 2019).

Assays:
Plasma stability = conditions: mouse plasma, 37 °C
[1] = Solubility and chemical stability in aqueous buffer by 1H 1D NMR; format: physicochemical; conditions: aqueous buffer pH = 7.5, T = 25 °C, 1H 1D NMR over time

| SMILES | plasma stability (in words) (Plasma stability) | chemical stability in aqueous buffer [1] |
| --- | --- | --- |
| CN[C@@H](C)C(=O)NC(Cc1cc(C)c(C(F)(F)F)cc1F)C(=O)N1CCC[C@H]1C(=O)N[C@@H]1CCc2c(OS(=O)(=O)F)cccc21 (mixture of isomers) [Compound 3, (1R)-1-((2S)-1-(3-(2-fluoro-5-methyl-4-(trifluoromethyl)phenyl)-2-((S)-2-(methylamino)propanamido)propanoyl)pyrrolidine-2-carboxamido)-2,3-dihydro-1H-inden-4-yl sulfurofluoridate] | less soluble in plasma, but still long-lived |  |
| CN[C@@H](C)C(=O)N[C@H](C(=O)N1CCC[C@H]1C(=O)N[C@@H]1CCc2c(OS(=O)(=O)F)cccc21)C1CCCCC1 [Compound 2, (R)-1-((S)-1-((S)-2-cyclohexyl-2-((S)-2-(methylamino)propanamido)acetyl)pyrrolidine-2-carboxamido)-2,3-dihydro-1H-inden-4-yl sulfurofluoridate] |  | long-lived (several hours) |
